In experiment [1] the test system is lysC riboswitch with the M1 or M2 mutation upstream of β-galactosidase reporter. Put plainly: Reporter gene (β-galactosidase) expression assay, M1 or M2 riboswitch constructs. The experiment is classed as cell-based, B. subtilis. Conditions: high compound concentrations (lysine as high as 5 mM). A general note: Reporter assays use an easily measured gene product as a stand-in for the process of interest.

The test system of experiment [2] is 179-nucleotide receptor domain (179 lysC) of the lysC lysine riboswitch. As to the kind of experiment: In-line probing assay, ligand binding to 179 lysC. Details: species or system B. subtilis. Conditions: in vitro.

These results are taken from US20100137440A1, “LYSINE RIBOSWITCHES, STRUCTURE-BASED COMPOUND DESIGN WITH LYSINE RIBOSWITCHES, AND METHODS AND COMPOSITIONS FOR USE OF AND WITH LYSINE RIBOSWITCHES” (Yale University, priority 2006, published 2010).

On to `NCCCC[C@H](N)C(=O)O` [lysine, L-lysine], for which the “β-galactosidase expression from M1 or M2 constructs” value in experiment [1] is on record as “derepress gene expression”.
Take `CC(=O)NCCCC[C@H](N)C(=O)O`: the “binding to 179 lysC / lysine aptamer (in words)” value in experiment [2] was “no binding is observed”.
